# Patent publication US11464867B2, “Multimeric elastin-like polypeptides” (University of Southern California, priority 2018, dated 2022)
# Assay: Isothermal titration calorimetry (ITC) of CypA-ELP fusions with CsA
# Settings: read-out: dissociation constant (Kd) to CsA, 25° C.
row,Substance,Kd [µM]
1,"CV96: cyclophilin A fused to ELP V96, SEQ ID NO: 4",0.23 ± 0.0578
2,dimerized CA192: dimeric fraction of CA192 isolated by size exclusion chromatography,0.343 ± 0.175
